A short description of this data set: Lipophilicity, log P of the compound. In kind it is physicochemical. To be noted: octanol/water.

`[O-][n+]1onc2c1c1no[n+]([O-])c1c1no[n+]([O-])c21`: the logP – broadly, the decadic logarithm of the partition coefficient of the neutral form, usually between octanol and water – was determined as 0.64.
